## Antibody variant affinities, Ab-14 heavy chain, assay B

The measurements come from Li et al. 2023 (doi:10.1038/s41467-023-39022-2) through the FLAb antibody collection.

All variants were tested on one target, the spike HR2 peptide PDVDLGDISGINAS (SARS-CoV-2).

Parent scFv Ab-14: VH joined to VL by three GGGGS repeats. Changes lie in the heavy chain CDRs alone.
VH: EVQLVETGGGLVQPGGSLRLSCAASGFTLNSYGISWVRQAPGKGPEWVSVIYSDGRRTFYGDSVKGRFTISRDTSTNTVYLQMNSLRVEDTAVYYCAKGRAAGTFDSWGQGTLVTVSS
VL: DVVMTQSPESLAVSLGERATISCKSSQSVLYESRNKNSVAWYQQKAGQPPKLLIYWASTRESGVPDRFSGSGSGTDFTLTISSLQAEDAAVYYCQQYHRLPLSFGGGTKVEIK

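The starting antibody came from a phage panning campaign against this peptide. These sequences belong to a second round, designed from the earlier measurements on random variants of the parent. Their group label is 14H_Rand (Rand: our label for a block that the file lists under HC and that is probably the random mutants of the ten best first-round binders). Affinity was read by AlphaSeq, a pooled yeast mating assay with surface-displayed partners. After mating in shaken culture at 30 °C for 16 h, diploids were selected and their barcode pairs sequenced. Each replicate has its own calibration line, from reference interactions of the BCL2 family. Mating was done six times.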

Each variant is given by its three heavy chain CDRs, as the data file delimits them; those of the parent are GFTLNSYGIS, VIYSDGRRTFYGDSVK, GRAAGTFDS.
Affinities are written as log10 Kd with Kd in nM; a lower number is a better binder.
An entry "nd" has no value in the source: the pair was not observed among the diploids in that replicate. This suggests poor binding but is not conclusive.
A sequence measured in both rounds can read differently, since the two assays cover different ranges.
As a blank, each scFv also met three strains without target: over all heavy chain designs, 1% of these pairings were detected, typically at 2.08 and seldom below 0.84. Also given: how often the same scFv was detected with the empty control strains, with their mean in brackets.
The authors averaged sequences with at least three values out of six and counted those with two or fewer as poor binders.
Of ten entries with the parent sequence, four were seen in most replicates (averages 0.34 to 2.37), three in one and three in none, so single entries are noisy.

CDR-H1 | CDR-H2 | CDR-H3 | replicates, log10 nM | signal with controls
GFTLNSTGIS | VIYADGRRTIYGDSVK | GRAAGTNKS | nd / nd / nd / nd / nd / nd | 0/18
GFTLNSHGVS | VIYSDGRRTFYQDSVK | GQLAGTFDS | nd / 2.04 / 2.03 / 2.36 / 1.48 / 2.17 | 0/18
GFTLNSYGIS | VIYSDGRRTFYSDSVK | GRAGTTFNS | nd / nd / nd / nd / nd / nd | 0/18
GFDLHSYGES | VIYSDGRRTFYGDSVK | GRAAGWFNS | nd / nd / nd / nd / nd / nd | 0/18
GFTLNDYGIS | VIYSDGRRTQYIESVK | GRAAGTFDS | 0.71 / 0.54 / 0.56 / 0.80 / 0.68 / 0.99 | 1/18 (1.35)
GFTLNVYGIS | VIYSDGLQTFYTDSVK | GRFAGTFDS | nd / nd / nd / nd / nd / nd | 0/18
YFTLNSKGIS | VIYSDMRRTFYSDSVK | MRAGGTFDS | nd / nd / nd / nd / nd / nd | 1/18 (1.57)
GFTLNEYWIS | VIYSDGRRTFYGDSVK | GRAAVTFDQ | nd / nd / nd / nd / nd / nd | 0/18
GITLNEYGIS | VYYSDGRRTFYAPSVK | GRAAVTFDQ | nd / nd / nd / nd / nd / nd | 0/18
GFTLNSYGIS | VIYSCGRRTFYDDSVK | GQLAKTFDS | nd / nd / nd / nd / nd / nd | 0/18
FFTLNSYGIS | VIYADGRRTFYGDSVK | GRAAPTNKS | nd / nd / nd / nd / nd / nd | 0/18
GSTLNEYGIS | VIYSDGRRTFYTDSVK | GRFAMGFDS | nd / nd / nd / nd / nd / nd | 0/18
GFTLNQYGIS | VIYSDGRRTFYTDSVK | GRFAGTFDS | -0.02 / 0.27 / -0.55 / 0.24 / 0.16 / 0.44 | 0/18
GFTLNEYGIS | VIYSDGRRTFHTDSVK | WRFAGTFDS | nd / nd / nd / nd / nd / nd | 0/18
GFTLNEYGIS | VIYSDGRRTAYGDSVK | SRAAVTFDQ | nd / nd / nd / nd / nd / nd | 0/18
NFTLNEYGIS | VIYSNGRRYFYTDSVK | GRFAGTFDS | nd / nd / nd / nd / nd / nd | 1/18 (1.34)
GFTLNNYGIS | VIYAYGRRTFYGDSVK | GRAAGTNNS | nd / nd / nd / nd / nd / nd | 0/18
GFTLNSYGIS | VCYADGRRTFYGDSVK | GRAAGTNKS | 0.66 / 0.61 / 0.21 / 0.71 / 0.16 / 0.64 | 0/18
GFTLNSYGIS | VIYSDGRRTFYSDSVK | QRLGGTFDS | nd / nd / nd / nd / nd / nd | 0/18
GFTLNQYGIS | VIYSDGMRIFYSDSVK | GRAAGRFDS | nd / nd / nd / nd / nd / nd | 0/18
GFTLNYYGIS | VIYSYGRRTFYSDSVK | GMAGGTFDS | nd / nd / nd / nd / nd / nd | 0/18
GHTLDSYGIC | VIYSDGRRTFYGDSVK | GRAAGTALS | nd / nd / nd / nd / nd / nd | 0/18
GFVLNSYGIS | VIYFDGQRTFYVDSVK | GRAAGWFNS | nd / nd / nd / nd / nd / nd | 0/18
GFDQNSYGIS | VIYSDGRRTFYPDSVK | GRAAGWFNS | nd / nd / nd / nd / nd / nd | 0/18
GFTLNSYGIS | VIYSNGRRTFYSDSVK | GRAGGTFDI | nd / nd / nd / nd / nd / nd | 0/18
DFTLNSYGIS | VIMSDGRRTFYSDSVK | IRAGGTFDS | nd / nd / nd / nd / nd / nd | 0/18
GNTLNQYGRS | VIGSDGRRTFYSDSVK | GRAAGVFDS | nd / nd / nd / nd / nd / nd | 0/18
GFTLNEYWIS | VIYEDGRRTFYGDSVK | GSAAVTFDQ | nd / nd / nd / nd / nd / nd | 0/18
GFTLNQYGNS | VIYSDGRRTFYSDSVK | GRAAGFFDC | nd / nd / nd / nd / nd / nd | 0/18
GFTLNDYGIS | VIYSDGRRTQYIDWVK | GRAKGTFDS | nd / nd / nd / nd / nd / nd | 0/18
GFTLDSVGVS | VIYSDGIRTFYGDSVK | GRAAGTALS | nd / 1.91 / nd / nd / nd / 2.10 | 0/18
GFTLNEYGIS | VIYSDGRRTFYTDSVK | GRPAGTFDS | nd / nd / nd / nd / nd / nd | 0/18
GFTLNEYGIS | VIYSDGRRTFYGDSWK | GRAAVTFDQ | nd / nd / nd / nd / nd / nd | 0/18
GFTLDSYGIS | VIYSDGRRTFIGDSVK | GRAAGTALS | nd / nd / nd / 2.57 / 1.57 / nd | 0/18
GFTLNQYGMS | VIYSDGRATFYSDSMK | GRAAGFFDS | nd / nd / nd / nd / nd / nd | 0/18
GFTLNQYGIS | VIYSDGRRTFLSDSVK | GRAAGFFDS | nd / nd / nd / nd / nd / nd | 0/18
GFDLNTGGIS | VIYSDGRRTFYGDSVK | GRAAAWFNS | nd / nd / nd / nd / nd / nd | 0/18
GKTLNEYGIS | VIYSDGRRTFYTDSVK | GRFAGTFLS | nd / nd / nd / nd / nd / nd | 0/18
GFTLNSPGIS | VIYSDGRRTFYSDDVK | GRAGGTFDS | nd / nd / nd / nd / nd / nd | 1/18 (2.70)
GFTLNSIGIS | VIYSDGRRTFYSDSVK | GRAGGTFDS | nd / 2.94 / 1.18 / 1.99 / 3.49 / 1.42 | 0/18
GFTLNEYGIS | VIYSDGRRTFYGDRVK | MRAAVTFDQ | nd / nd / nd / nd / nd / nd | 1/18 (0.14)
GFTLNLYGIS | VIYADGRRTEYGDSVK | GRAAGTNKS | nd / nd / nd / nd / nd / nd | 0/18
GFDLNSYGIS | VIQSDGRRFFYGDSVK | GRAANWFRS | nd / nd / nd / nd / nd / nd | 0/18
GFTLNDYDIS | VAYSDGRRTFYGDSVK | GRAALTFIS | nd / nd / nd / nd / nd / nd | 1/18 (1.09)
GFTLNQYGIT | VIYSDGHRTFYSDSVK | GRAAEFFDS | nd / nd / nd / nd / nd / nd | 0/18
GFTLEIYGIS | VMYSDGRRTFYGDSVK | GRAALTFIS | nd / nd / nd / nd / nd / nd | 1/18 (1.25)
GFTLNDYGIS | VIYSDGRWTQYIDSVK | GRAAGTFDS | nd / nd / nd / nd / nd / nd | 1/18 (1.96)
GFTLNSYGIS | VHYADGRRTFYGDSWK | GRAAGTNKS | nd / nd / nd / nd / nd / nd | 0/18

The last 6 entries again:

CDR-H1 | CDR-H2 | CDR-H3 | replicates, log10 nM | signal with controls
GFDLNSYGIS | VIQSDGRRFFYGDSVK | GRAANWFRS | nd / nd / nd / nd / nd / nd | 0/18
GFTLNDYDIS | VAYSDGRRTFYGDSVK | GRAALTFIS | nd / nd / nd / nd / nd / nd | 1/18 (1.09)
GFTLNQYGIT | VIYSDGHRTFYSDSVK | GRAAEFFDS | nd / nd / nd / nd / nd / nd | 0/18
GFTLEIYGIS | VMYSDGRRTFYGDSVK | GRAALTFIS | nd / nd / nd / nd / nd / nd | 1/18 (1.25)
GFTLNDYGIS | VIYSDGRWTQYIDSVK | GRAAGTFDS | nd / nd / nd / nd / nd / nd | 1/18 (1.96)
GFTLNSYGIS | VHYADGRRTFYGDSWK | GRAAGTNKS | nd / nd / nd / nd / nd / nd | 0/18